In ChEMBL document CHEMBL1126916, “Cyclic GMP phosphodiesterase inhibitors. 1. The discovery of a novel potent inhibitor, 4-((3,4-(methylenedioxy)benzyl)amino)-6,7,8-trimethoxyquinazoline” (J Med Chem, 1993):
pIC50: −log10 of the molar value.

Biological target: T1, Phosphodiesterase 3A (Sus scrofa, UniProt Q9XSW7)
T1 sequence (Q9XSW7 whole entry): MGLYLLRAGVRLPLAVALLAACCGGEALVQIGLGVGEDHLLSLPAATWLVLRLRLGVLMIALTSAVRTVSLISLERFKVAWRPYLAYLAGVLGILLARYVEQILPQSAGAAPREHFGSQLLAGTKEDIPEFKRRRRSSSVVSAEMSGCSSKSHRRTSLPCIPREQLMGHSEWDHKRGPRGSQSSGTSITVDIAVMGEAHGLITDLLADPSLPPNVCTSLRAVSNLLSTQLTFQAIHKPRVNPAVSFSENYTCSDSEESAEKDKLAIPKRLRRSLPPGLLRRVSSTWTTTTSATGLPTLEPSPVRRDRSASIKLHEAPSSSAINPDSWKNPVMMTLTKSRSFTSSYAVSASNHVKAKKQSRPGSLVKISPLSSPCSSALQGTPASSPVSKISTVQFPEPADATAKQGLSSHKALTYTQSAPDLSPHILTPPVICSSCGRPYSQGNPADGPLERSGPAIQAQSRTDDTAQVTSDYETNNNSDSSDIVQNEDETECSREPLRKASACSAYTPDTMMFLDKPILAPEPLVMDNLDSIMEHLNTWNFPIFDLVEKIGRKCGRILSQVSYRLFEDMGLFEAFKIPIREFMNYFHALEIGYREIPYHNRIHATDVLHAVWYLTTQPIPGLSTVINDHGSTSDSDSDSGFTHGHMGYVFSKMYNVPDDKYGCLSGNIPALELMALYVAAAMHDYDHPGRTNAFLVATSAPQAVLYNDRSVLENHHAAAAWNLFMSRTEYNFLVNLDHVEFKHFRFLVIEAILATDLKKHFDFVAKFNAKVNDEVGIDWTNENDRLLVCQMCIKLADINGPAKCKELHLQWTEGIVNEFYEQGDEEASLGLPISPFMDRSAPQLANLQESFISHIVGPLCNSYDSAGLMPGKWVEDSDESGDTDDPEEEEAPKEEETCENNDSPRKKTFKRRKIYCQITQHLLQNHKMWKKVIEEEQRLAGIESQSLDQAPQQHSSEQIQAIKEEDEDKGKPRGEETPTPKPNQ
Assay: Inhibition of cGMP-inhibited phosphodiesterase from porcine coronary arteries

COc1cc2c(NCc3ccc4c(c3)OCO4)ncnc2c(OC)c1OC
pIC50: < 4.00
